For assay [1], the system named is μMASS^1. The assay is classed as cell-based, rat.
Assay [2] has as its system μMASS^1. The assay is classed as cell-based, rat. Conditions: antagonist applied after agonist.

“Also recorded” adds a separate entry of the source.

Consider `CN1CC[C@]23c4c5ccc(O)c4O[C@H]2[C@@H](O)C=C[C@H]3[C@H]1C5` [morphine], for which, in assay [1], the “activation of μMASS^1 compared to Met-enk” value is on record as 26.4 ± 3.64%. For the molecule `C=CCN1CC[C@]23c4c5ccc(O)c4O[C@H]2C(=O)CC[C@@]3(O)[C@H]1C5` [naloxone], in assay [2], the “effect on μMASS^1 fluorescence signal” value is listed as “abolished the fluorescence signal; also recorded: reversible”.

Values taken from publication PMC10683761 (ACS Sensors, 2023).
